Data taken from patent US20100324036A1, “SUBSTITUTED IMIDAZOPYRIDINE DERIVATIVES AS MELANOCORTIN-4 RECEPTOR ANTAGONISTS” (SANTHERA PHARMACEUTICALS (SCHWEIZ) AG, priority 2007, published 2010).

By UniProt entry, the sequences of proteins in these tests, tags left out.
UniProt P32245, whole entry: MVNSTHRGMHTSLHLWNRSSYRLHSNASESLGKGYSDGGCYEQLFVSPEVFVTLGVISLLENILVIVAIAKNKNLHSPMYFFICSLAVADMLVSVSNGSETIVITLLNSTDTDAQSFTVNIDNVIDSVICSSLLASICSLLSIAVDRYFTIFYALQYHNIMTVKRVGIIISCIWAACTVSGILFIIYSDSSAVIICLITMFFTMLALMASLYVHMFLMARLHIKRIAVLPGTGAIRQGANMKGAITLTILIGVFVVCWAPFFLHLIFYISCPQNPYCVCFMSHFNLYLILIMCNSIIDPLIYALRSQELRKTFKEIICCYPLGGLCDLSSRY

Target: hMC-4R (Homo sapiens, UniProt P32245)
Assay: Membrane binding assay, competition with fluorescence labeled NDP-alpha-MSH (fluorescence polarization)
Conditions: read-out: hMC-4R binding assay IC50/nM; HEK293 cell membrane preparations; tested form: HCOOH

IC50: < 100 nM
Structure (SMILES): CC(C)CCN(CCC(C)C)C(=O)c1ccc2nc(-c3cnc4c(c3)OCCN4C)c(CCCN3CCCC3)n2c1
